Patent publication US12544370B2, “Methods for cancer therapy” (ASCENTAGE PHARMA (SUZHOU) CO., LTD., priority 2018, dated 2026)

System: patients with chronic phase (CP/CML-CP) or accelerated phase (AP/CML-AP) CML resistant to or intolerant of ≥2 prior TKIs or with BCR-ABL T315I
Experiment: Phase 1 trial in resistant CML, further safety (Example 2)
Settings: Example 2, Table 3; treatment related AE, treated population 101

Cc1ccc(C(=O)Nc2ccc(CN3CCN(C)CC3)c(C(F)(F)F)c2)cc1C#Cc1cnc2[nH]ncc2c1 [3-(2-(1H-pyrazolo[3,4-b]pyridin-5-yl)ethynyl)-4-methyl-N-(4-((4-methylpiperazin-1-yl)methyl)-3-(trifluoromethyl)phenyl)-benzamide]
21 (20.8%) n(%): Hyperglycaemia, Any Grade | Myalgia, Any Grade | leukopenia, Any Grade
